Compound activity (PubChem)
PDI turbidity: inhibitors of human protein disulfide isomerase; P07237; PDI insulin aggregation turbidity, A650, 90 min; inhibition, % at 10 µM; hit rate 0.052% among 350,000; AID 588391;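 active = mean inhibition across replicates of 30% or more, whatever share of single replicates reach that level; inconclusive = mean inhibition below 30% while every single replicate reaches 30%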
UUG fidelity: modulators of yeast start codon fidelity, primary screen, whole organism, S. cerevisiae, single point, plate reader; S. cerevisiae UUG-firefly luciferase reporter, luminescence/redox ratio; activity score, % at 18.7 µM; 0.13% of 350,000 active; AID 602363, 2012;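 active = replicate mean at a twofold rise or more, about +100% in these data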;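 also: firefly luciferase made from a UUG start codon reports start codon fidelity; reporter light over untreated wells divided by growth signal over untreated wells; some hits fall short of that in this replicate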
SIRT5 inh: sirtuin-5 (human) deacylase inhibition; Purified SirT5, succinyl-peptide AMC, trypsin-coupled fluorescence; inhibition, % at 15 µM; hit rate 1.1% among 330,000; in the data active = inhibition above about 15%; inconclusive = no clear call, values can overlap the other calls
ERp5 block: inhibitors of human ERp5 | Q15084 | ERp5 insulin aggregation, absorbance 650 nm, 90 min | inhibition, % at 9.99 µM | hit rate 0.05% among 350,000 | AID 651711;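 active = mean replicate inhibition above about 25%, with every replicate also reaching it, limit read from the data, passing the limit was not always enough; inconclusive = only one of those two criteria met; inactive = neither criterion met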
FGF22 binding-1: shifts melting point of recombinant human FGF22 | Q9HCT0 | recombinant FGF22 thermal shift, SYPRO orange fluorescence; percent of sucrose octasulfate shift, DMSO zero | activity (Tm shift, normalised), % at 9.99 µM | hit rate 1.5% among 340,000;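 active = mean Tm shift, scaled 0 neutral to 100 positive control, at about 1.3% or above, every replicate too, limit read from the data; inconclusive = no clear call, values can overlap the other calls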
S100A4 inh HTS: inhibitors of human S100A4 binding to myosin IIA peptide; P26447; S100A4/TAMRA-MyoIIA peptide fluorescence polarization; inhibition, % at 10.7 µM; hit rate 0.14% among 360,000;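 active = mean inhibition of at least 70% across replicates, with every replicate also reaching that level; inconclusive = mean inhibition reaches 70% but some replicates fall short; inactive = mean inhibition below 70%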
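Test system – S100A4 monomer (human) · Compound – single-point compound testing · Schedule – 5 min incubation before reading · Probe or stimulus – TAMRA-labelled myosin IIA heavy-chain peptide probe, 5 nM · Benchmarks – neutral control DMSO, positive control TFP · Medium – Calcium-containing HEPES buffer, pH 7.2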
FGF22 binding-2: binds human FGF22 shifting its melting temperature | hit rate 2% among 1,000 | shares compounds with FGF22 binding-1 | recombinant FGF22 thermal shift, SYPRO orange fluorescence | thermal shift activity, °C (ΔTm) at 38 µM;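 active = fitted rise in melting shift crosses a set limit at or below the top valid dose tested; inconclusive = flat fit at mid-level activity, or a poor quality fit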
SYPRO no-protein: counter-screen for FGF22 binders: compound-only thermal shift, no protein; compound-only SYPRO orange thermal shift counter-screen; hit rate 2% among 1,000; AC50, µM (doses to about 38 µM); AID 743019; shares compounds with FGF22 binding-1;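 active = rising signal whose fitted curve reaches the 0.54 level within the top valid dose, showing a melting point, actives reach about 13 µM in these data; inactive = the rest, including activity in the opposite direction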; note: value is where the raw curve crosses a fixed level and not half-maximal
* hit, by the source's call; i = inactive; ? = inconclusive; · = no result given; [ ] = another dose, or the depositor's remark. Only some compounds are listed: those with a hit (about 2.2% of all), similar ones and a draw of the others.

entry	Compound	PDI turbidity	UUG fidelity	SIRT5 inh	ERp5 block
1	CCC(=O)N1[C@H](CN(C)C(C)=O)[C@H](c2ccc(-c3cccc(F)c3)cc2)[C@@H]1CO	·	-9	·	·
2	Cc1ccsc1C(=O)NNC(=O)c1ccc(NS(=O)(=O)c2cccs2)cc1	0	-15	8	-3
3	N#C[C@@H]1[C@@H](c2ccccc2-c2ccccc2F)[C@@H](CO)N1C(=O)C1CCC1	·	·	-3	-1
4	N#C[C@H]1[C@H](c2ccccc2-c2ccccc2F)[C@@H](CO)N1C(=O)C1CCC1	·	·	-3	-1
5	C[C@@H]1CN([C@@H](C)CO)C(=O)c2cc(NC(=O)c3ccccc3)ccc2O[C@@H](C)CCCCO[C@@H]1CN(C)S(=O)(=O)c1cccs1	·	8	·	·
6	CCN(CC)S(=O)(=O)c1ccc(NC2=NS(=O)(=O)c3ccccc32)cc1	0	-23	-1	-7
7	CCC(=O)N(NC1=NS(=O)(=O)c2ccccc21)S(=O)(=O)c1ccc(C)cc1	-1	·	2	-1
8	C[C@@H]1CN([C@H](C)CO)S(=O)(=O)c2ccc(/C=C/c3ccccc3)cc2O[C@H]1CN(C)Cc1ccc(C(=O)O)cc1	·	8	?	-7

entry	FGF22 binding-1	S100A4 inh HTS	FGF22 binding-2	SYPRO no-protein
1	·	·	·	·
2	1.6*	5	0.021	i
3	1	-4	·	·
4	1.4*	20	0.14[42 µM]	i
5	-1	·	·	·
6	0	-3	·	·
7	1.7*	1	-0.002	i
8	0	5	·	·

Additional compounds follow.
entry	Compound	PDI turbidity	UUG fidelity	SIRT5 inh	ERp5 block
9	COc1cccc(NC(=O)N(C)C[C@@H]2Oc3cc(-c4ccccc4F)ccc3S(=O)(=O)N([C@@H](C)CO)C[C@H]2C)c1	·	7	8	0
10	C[C@H](CO)N1C[C@H](C)[C@@H](CN(C)Cc2ccc(C(=O)O)cc2)Oc2cc(/C=C/c3ccccc3)ccc2S1(=O)=O	·	7	104*	-6
11	C[C@@H]1CN([C@@H](C)CO)S(=O)(=O)c2ccc(-c3ccncc3)cc2O[C@@H]1CN(C)C(=O)Nc1ccc(C(F)(F)F)cc1	·	-18	-3	3
12	COc1cccc(NC(=O)N(C)C[C@H]2Oc3cc(-c4ccccc4F)ccc3S(=O)(=O)N([C@@H](C)CO)C[C@H]2C)c1	·	6	19*	4
13	C[C@H](CO)N1C[C@H](C)[C@@H](CN(C)C(=O)Nc2ccc(C(F)(F)F)cc2)Oc2cc(-c3ccncc3)ccc2S1(=O)=O	·	-7	0	-3
14	CC(C)NC(=O)Nc1ccc2c(c1)CC(=O)N([C@@H](C)CO)C[C@@H](C)[C@H](CN(C)Cc1ccncc1)O2	·	11	4	-2
15	CN(C)C(=O)C[C@@H]1CC[C@@H]2[C@H](COc3ccc(NC(=O)C4CCC4)cc3C(=O)N2C)O1	·	·	1	12
16	COc1cccc(NC(=O)N(C)C[C@H]2Oc3cc(-c4ccccc4F)ccc3S(=O)(=O)N([C@H](C)CO)C[C@@H]2C)c1	·	4	5	0

entry	FGF22 binding-1	S100A4 inh HTS	FGF22 binding-2	SYPRO no-protein
9	1.7*	-7	0.076[42 µM]	i
10	23*	18	0.099[42 µM]	i
11	1.5*	4	-0.076	i
12	2.8*	-6	0.2[42 µM]	i
13	0	-11	·	·
14	0	-16	·	·
15	·	20	·	·
16	1.4*	-7	-0.052[42 µM]	i

Next structures
entry	Compound	PDI turbidity	UUG fidelity	SIRT5 inh	ERp5 block
17	COc1ccccc1-c1ccc2c(c1)O[C@@H](CN(C)C(=O)Nc1cccc(F)c1)[C@H](C)CN([C@@H](C)CO)S2(=O)=O	·	-5	6	-6
18	C/C=C/c1ccc2c(c1)O[C@@H](CN(C)C(=O)Nc1cc(F)ccc1F)[C@@H](C)CN([C@H](C)CO)S2(=O)=O	·	-4	7	9
19	COc1cccc(NC(=O)N(C)C[C@H]2Oc3cc(-c4ccccc4F)ccc3S(=O)(=O)N([C@@H](C)CO)C[C@@H]2C)c1	·	-4	15	-6
20	C[C@H]1CN([C@@H](C)CO)C(=O)c2cc(NS(=O)(=O)c3cn(C)cn3)ccc2O[C@@H]1CN(C)Cc1ccccc1	·	-6	-25	5
21	Oc1ccc(-c2csc(Nc3ccccn3)n2)c(O)c1	-37	-18	-1	3
22	COc1ccccc1CNC(=O)C[C@H]1C[C@H]2c3cc(NC(=O)CC4CC4)ccc3O[C@H]2[C@@H](CO)O1	·	0	·	·
23	Cc1ccc(-c2c[n+](CC(=O)Nc3ccc(C)cc3C)c3n2CCC3)cc1	-9	-2	·	4
24	COc1ccc(C(=O)N2CCCCC2)cc1S(=O)(=O)Nc1cccc(C(=O)O)c1	6	-12	-3	4

entry	FGF22 binding-1	S100A4 inh HTS	FGF22 binding-2	SYPRO no-protein
17	2.0*	-16	-0.15	11µM*
18	1.3*	4	-0.53[42 µM]	i
19	0	-7	·	·
20	0	-4	·	·
21	2.8*	3	-0.051	11µM*
22	0	·	·	·
23	14*	-4	0.24	i
24	1.7*	-3	0.22	11µM*

Remaining list, next part:
entry	Compound	PDI turbidity	UUG fidelity	SIRT5 inh	ERp5 block
25	O=C(O)c1cccc(-n2cc(-c3cccc(C(F)(F)F)c3)cn2)c1	0	·	-8	-4
26	CCOC(=O)c1c(C)oc2cc(Br)c(O)c(Br)c12	·	-9	·	3
27	COc1ccccc1NS(=O)(=O)c1cc(C(=O)Nc2ccc(S(=O)(=O)Nc3onc(C)c3C)cc2)ccc1C	7	-12	2	14
28	COc1ccccc1NS(=O)(=O)c1ccc(C)c(C(=O)Nc2ccc(S(=O)(=O)Nc3onc(C)c3C)cc2)c1	-3	-3	2	-2
29	CCOC(=O)[C@]12CCCC=C1N(Cc1ccccc1)C(=O)[C@H](CC(=O)NCC1CCCCC1)C2	·	·	3	4
30	CCOC(=O)[C@]12CCCC=C1N(Cc1ccccc1)C(=O)[C@H](CC(=O)NCc1ccc(C)o1)C2	·	·	-2	2
31	COCCNC(=O)c1cc2c(c(-c3cccc(-c4cccc(F)c4)c3)n1)[C@H](CCO)N([S@@](=O)C(C)(C)C)C2	·	·	-2	1
32	O=C(C[C@H]1CC[C@H]2[C@@H](COC[C@@H](O)CN2C(=O)c2ccccc2F)O1)NCc1ccccc1	·	·	-2	-1

entry	FGF22 binding-1	S100A4 inh HTS	FGF22 binding-2	SYPRO no-protein
25	1.6*	-2	0.17	i
26	1.4*	-2	0.025	i
27	1.8*	5	0.23	i
28	0	-3	·	·
29	2.2*	0	-0.08	i
30	0	3	·	·
31	0	-29	·	·
32	1	13	·	·

(continued)
entry	Compound	PDI turbidity	UUG fidelity	SIRT5 inh	ERp5 block
33	S=C(NCCN1CCOCC1)Nc1ccc(-c2nc3ccccc3[nH]2)cc1	8	·	2	-6
34	Fc1ccc(NC(=S)NCCN2CCOCC2)cc1	1	·	-2	10
35	O=C(c1ccncc1)N1C[C@@H]2[C@H](c3ccccc31)[C@H](CO)N2Cc1ccc(F)cc1	·	-8	4	3
36	COc1ccc(Cl)cc1C(=O)OCC(=O)c1c(N)n(C)c(=O)n(C)c1=O	-8	-13	-2	-3
37	COc1cc2ccccc2cc1C(=O)OCC(=O)c1c(N)n(C)c(=O)n(C)c1=O	13	-4	0	-1

entry	FGF22 binding-1	S100A4 inh HTS	FGF22 binding-2	SYPRO no-protein
33	2.2*	-14	-0.28	i
34	0	2	·	·
35	-1	23	·	·
36	0	1	·	·
37	17*	1	0.074	i

Entries above containing a CF3 group (three):
entry	Compound	PDI turbidity	UUG fidelity	SIRT5 inh	ERp5 block
11	C[C@@H]1CN([C@@H](C)CO)S(=O)(=O)c2ccc(-c3ccncc3)cc2O[C@@H]1CN(C)C(=O)Nc1ccc(C(F)(F)F)cc1	·	-18	-3	3
13	C[C@H](CO)N1C[C@H](C)[C@@H](CN(C)C(=O)Nc2ccc(C(F)(F)F)cc2)Oc2cc(-c3ccncc3)ccc2S1(=O)=O	·	-7	0	-3
25	O=C(O)c1cccc(-n2cc(-c3cccc(C(F)(F)F)c3)cn2)c1	0	·	-8	-4

entry	FGF22 binding-1	S100A4 inh HTS	FGF22 binding-2	SYPRO no-protein
11	1.5*	4	-0.076	i
13	0	-11	·	·
25	1.6*	-2	0.17	i
